From PubChem BioAssay (NCI)
The list shows a part of the results, in another mix than the full data. More than one record can exist for a structure, and the calls need not agree. The source made the active and inactive calls. Cut-off read from the data, not from the text of the source: active = growth inhibition above about 70%; inactive = the rest.

Columns and labels:
[1] = NCI Yeast Anticancer Drug Screen. Data for the rad50 strain (AID 155);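 note: 0% = growth of vehicle-only cultures of the same strain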; conditions: S. cerevisiae rad50 strain growth inhibition, hits give high values
[2] = NCI Yeast Anticancer Drug Screen. Data for the mec2-1 strain (AID 157); conditions: S. cerevisiae mec2-1 strain, hits give high values
[3] = NCI Yeast Anticancer Drug Screen. Data for the sgs1 mgt1 strain (AID 161);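 note: 0% = growth of cultures given vehicle only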; conditions: S. cerevisiae sgs1 mgt1 strain, hits give high values
[4] = NCI Yeast Anticancer Drug Screen. Data for the cln2 rad14 strain (AID 165);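 note: 0% = growth equal to vehicle treated cultures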; conditions: S. cerevisiae cln2 rad14 strain, hits give high values
[5] = NCI Yeast Anticancer Drug Screen. Data for the bub3 strain (AID 167); conditions: S. cerevisiae bub3 mutant strain, hits give high values
[6] = NCI Yeast Anticancer Drug Screen. Data for the mlh1 rad18 strain (AID 175); conditions: S. cerevisiae mlh1 rad18 strain growth inhibition, hits give high values
[7] = at 5.0 µM (retest, dose inferred, filed as 0.5)
[8] = at 50.0 µM (retest, dose inferred, filed as 5.0)

Measured: growth inhibition

COc1cc([N+](=O)[O-])c([N+](=O)[O-])cc1N
active: [2]; at 50.0 µM 71.8%
inactive: [1]; [7] -22% | [1]; [8] 3% | [1]; at 50.0 µM 60.2% | [2]; [7] 2% | [2]; [8] 2% | [3]; [7] -11% | [3]; [8] -4% | [3]; at 50.0 µM 57.5% | [4]; [7] -33% | [4]; [8] -19% | [4]; at 50.0 µM 5.45% | [5]; [7] 0% | [5]; [8] 5% | [5]; at 50.0 µM 38.1% | [6]; [7] -8% | [6]; [8] -4% | [6]; at 50.0 µM 45%

COC(CCOP(N)(=O)N(CCCl)CCCl)OC (configuration not stated)
inactive: [1]; [7] 1% | [1]; [8] 51% | [1]; at 50.0 µM -2.65% | [2]; [7] 2% | [2]; [8] 20% | [2]; at 50.0 µM 11.9% | [3]; [7] 0% | [3]; [8] 16% | [3]; at 50.0 µM -1.8% | [4]; [7] 0% | [4]; [8] 38% | [4]; at 50.0 µM 45.4% | [5]; [7] -5% | [5]; [8] 8% | [5]; at 50.0 µM 10.5% | [6]; [7] -4% | [6]; [8] 2% | [6]; at 50.0 µM 19.8%

NP(=O)(O)N(CCCl)CCCl
inactive: [1]; [7] -3% | [2]; [7] 3% | [2]; [8] 29% | [2]; at 50.0 µM 14.7% | [3]; [7] -1% | [3]; [8] 45% | [3]; at 50.0 µM 25.7%
active: [1]; [8] 73% | [1]; at 50.0 µM 83.5% | [4]; [8] 78%

O=[N+]([O-])C(Cl)(Cl)/C=C(\Cl)C(Cl)(Cl)[N+](=O)[O-]
inactive: [1]; [7] 35% | [2]; [7] 24% | [3]; [7] 27% | [4]; [7] 15% | [4]; at 50.0 µM 65.6% | [5]; [7] 20% | [6]; [7] 32%
active: [1]; [8] 95% | [1]; at 50.0 µM 70.2% | [2]; [8] 100% | [2]; at 50.0 µM 84.2% | [3]; [8] 95% | [3]; at 50.0 µM 90.5% | [4]; [8] 75% | [5]; [8] 99% | [5]; at 50.0 µM 72.2% | [6]; [8] 98% | [6]; at 50.0 µM 73.4%

CCN(CC)CC(c1ccccc1)C1(O)CCCCC1 (configuration not stated)
inactive: [1]; [7] 0% | [1]; [8] -2% | [1]; at 50.0 µM 19.8% | [2]; [7] 2% | [2]; [8] 7% | [2]; at 50.0 µM 12.6% | [3]; [7] -3% | [3]; [8] 13% | [3]; at 50.0 µM 42.4% | [4]; [7] 1% | [4]; [8] 10% | [4]; at 50.0 µM 67% | [5]; [7] 0% | [5]; [8] 7% | [5]; at 50.0 µM -0.25% | [6]; [7] 3% | [6]; [8] 6% | [6]; at 50.0 µM 19.3%

O=[N+]([O-])c1ccc([N+](=O)[O-])c(O)c1
active: [1]; [8] 98% | [1]; at 50.0 µM 90% | [2]; [8] 99% | [2]; at 50.0 µM 93% | [3]; [8] 99% | [3]; at 50.0 µM 91% | [4]; [8] 98% | [4]; at 50.0 µM 92.3% | [5]; [8] 99% | [5]; at 50.0 µM 91% | [6]; [7] 79% | [6]; [8] 99% | [6]; at 50.0 µM 91.2%
inactive: [1]; [7] 33% | [2]; [7] 32% | [3]; [7] 45% | [4]; [7] 34% | [5]; [7] 66%

C[N+]1(CCCCCCCC[N+]2(C)CCCCCCC2)CCCCCCC1
inactive: [1]; [7] -14% | [1]; [8] -15% | [1]; at 50.0 µM 41.5% | [2]; [7] 4% | [2]; [8] -12% | [2]; at 50.0 µM 25.1% | [3]; [7] -1% | [3]; [8] -2% | [3]; at 50.0 µM 44.6% | [4]; [7] 9% | [4]; [8] 17% | [4]; at 50.0 µM -4.95% | [5]; [7] -10% | [5]; [8] 2% | [5]; at 50.0 µM 48.8% | [6]; [7] 2% | [6]; [8] 14% | [6]; at 50.0 µM 44.7%

[N-]=[N+]=Nc1ccccc1[N+](=O)[O-]
active: [1]; [8] 99% | [1]; at 50.0 µM 99% | [2]; [8] 99% | [3]; [8] 99% | [4]; [8] 100% | [4]; at 50.0 µM 98.3% | [5]; [8] 99% | [5]; at 50.0 µM 98.8% | [6]; [7] 72% | [6]; [8] 99%
inactive: [1]; [7] 63% | [2]; [7] 36% | [2]; at 50.0 µM 55.8% | [3]; [7] 50% | [3]; at 50.0 µM 49.6% | [4]; [7] 31% | [5]; [7] 51% | [6]; at 50.0 µM 52.6%

CC(=O)Nc1ccc([As]=O)c2ccccc12 (configuration not stated)
active: [1]; [7] 93% | [1]; [8] 99% | [1]; at 50.0 µM 99.2% | [2]; [7] 99% | [2]; [8] 99% | [2]; at 50.0 µM 99.3% | [3]; [7] 99% | [3]; [8] 99% | [3]; at 50.0 µM 99.5% | [4]; [7] 98% | [4]; [8] 99% | [4]; at 50.0 µM 99.3% | [5]; [7] 99% | [5]; [8] 98% | [5]; at 50.0 µM 99.3% | [6]; [7] 99% | [6]; [8] 99% | [6]; at 50.0 µM 99.5%

COc1cccc(C[N+](C)(CCCl)CCCl)c1[N+](=O)[O-]
inactive: [1]; at 1.2 µM 14% | [1]; at 3.7 µM 9% | [1]; [7] 22% | [1]; at 11.0 µM 23% | [1]; [8] 62% | [2]; at 1.2 µM 11% | [2]; at 3.7 µM 9% | [2]; [7] -1% | [2]; at 11.0 µM 8% | [2]; at 33.0 µM 23% | [2]; [8] 22% | [2]; at 50.0 µM 30.2% | [2]; at 100.0 µM 69% | [3]; [7] 5% | [3]; [8] 14% | [3]; at 50.0 µM 34.1% | [4]; [7] -1% | [4]; [8] 59% | [4]; at 50.0 µM 52.4% | [5]; at 1.2 µM -4% | [5]; at 3.7 µM -7% | [5]; [7] 4% | [5]; at 11.0 µM -11% | [5]; at 33.0 µM -4% | [5]; [8] 9% | [5]; at 50.0 µM 2.1% | [5]; at 100.0 µM -3% | [6]; [7] 14%
active: [1]; at 33.0 µM 72% | [1]; at 50.0 µM 76% | [1]; at 100.0 µM 93% | [6]; [8] 73% | [6]; at 50.0 µM 74.3%
